Data on five substances can be found in patent US20070259417A1.

The target in test [1] is human neutrophil elastase (human) (UniProt P08246). Nature of the test: immobilized HNE, pH 2.2 wash.
Test [2] shares this target. Nature of the test: immobilized HNE, pH 3.0 wash.
For test [3] the target is unchanged. Nature of the test: immobilized HNE, pH 4.0 wash.
Test [4] has the same target. Nature of the test: immobilized HNE, pH 5.0 wash.
The target is the same in test [5]. Briefly: immobilized HNE, pH 6.0 wash.
The target is the same in test [6]. Nature of the test: immobilized HNE, pH 7.0 wash.
The target is the same in test [7]. Nature of the test: immobilized HNE, pH 3.5 wash.
Test [8] shares this target. Nature of the test: immobilized HNE, pH 4.0 wash. This is another data set of the same source.
Test [9] has the same target. Nature of the test: immobilized HNE, pH 4.5 wash.
Test [10] has the same target. Briefly: immobilized HNE, pH 5.0 wash. The source holds these as a separate data set.
The target is the same in test [11]. Briefly: immobilized HNE, pH 5.5 wash.
Test [12] has the same target. Briefly: immobilized HNE, pH 6.0 wash. The source holds these as a separate data set.
The target is the same in test [13]. Briefly: immobilized HNE, pH 7.0 wash. This is another data set of the same source.
Test [14] shares this target. Briefly: immobilized HNE, pH 4.25 wash.
Test [15] shares this target. Nature of the test: immobilized HNE, pH 4.75 wash.
For test [16] the target is unchanged. Nature of the test: immobilized HNE, sum of pH washes.
For test [17] the target is unchanged. Briefly: immobilized HNE, sum of pH washes. This is another data set of the same source.
Test [18] shares this target. Nature of the test: pH 2.2 eluate from immobilized HNE.
For test [19], the target named is trypsin (UniProt P00760). Briefly: pH 2.2 eluate from immobilized trypsin.
For test [20], the target named is human neutrophil elastase (human) (UniProt P08246). Briefly: pH 2.2 eluates from immobilized proteases.
Test [21] shares this target. Nature of the test: immobilized HNE, pH 3.5 wash. The source holds these as a separate data set.
Test [22] shares this target. Nature of the test: immobilized HNE, pH 4.5 wash. The source holds these as a separate data set.
Test [23] has the same target. Nature of the test: pfu acid eluted from HNE beads.
For test [24], the target named is trypsin (UniProt P00760). Nature of the test: pfu acid eluted from trypsin beads.
Test [25] deals with human neutrophil elastase (human) (UniProt P08246). Briefly: mixture of two phage on immobilized HNE, pH 4.0 wash.
For test [26] the target is unchanged. Nature of the test: mixture of two phage on immobilized HNE, pH 5.0 wash.
The target is the same in test [27]. Briefly: mixture of two phage on immobilized HNE, pH 6.0 wash.
For test [28] the target is unchanged. Nature of the test: mixture of two phage on immobilized HNE, pH 7.0 wash.
The target is the same in test [29]. Briefly: fractionation of a phage mixture on immobilized HNE.
For test [30], the target named is agarose-immobilized anhydro-trypsin (UniProt P00760). Briefly: titer after 2 h with 5 ul immobilized anhydro-trypsin.
Test [31] shares this target. Nature of the test: titer after 1 h with 10 ul immobilized anhydro-trypsin.
The target is the same in test [32]. Briefly: titer after 2 h with 10 ul immobilized anhydro-trypsin.
For test [33] the target is unchanged. Nature of the test: dot blot of phage eluted at pH 2.2 from 2 ul immobilized anhydro-trypsin.
The target is the same in test [34]. Briefly: dot blot of phage eluted at pH 2.2 from 5 ul immobilized anhydro-trypsin.
The target is the same in test [35]. Briefly: dot blot of phage eluted at pH 2.2 from 10 ul immobilized anhydro-trypsin.
Test [36] has as its target agarose-immobilized streptavidin (UniProt P22629). Briefly: dot blot of phage eluted at pH 2.2 from 5 ul immobilized streptavidin.

Like-named read-outs stand apart in the source and are kept apart here. Bounds are passed on as bounds.

For the substance “BPTI(K15L)-III MA phage (designed binder)”, the percent of input phage in test [1] was 0.011%; in [2], 0.21%; in [3], 0.82%; in [4], 0.4%; in [5], 0.086%; in [6], 0.032%. Moreover, the percent of input phage in test [7] is 0.004%; in [8], 0.014%; in [9], 0.085%; in test [10] it was 0.152%; in [11], 0.146%; in [12], 0.1%. The percent of input phage turned out to be 0.082% in test [13]; 0.142% in test [14]; 0.276% in [15]; 0.1% in test [18]; 0.005% with trypsin [19]. Besides, the total percentage of input phage recovered amounted to 1.56% in test [16] and 1% in [17]. The ratio of input phage bound to HNE beads over trypsin beads in [20] came out at 36 fold.

For the substance “BPTI(K15L,MGNG)-III MA phage (designed binder)”, the percent of input phage worked out at 0.069% in test [3]; 0.139% in test [4]; 0.079% in test [5]; 0.046% in test [6]; 0.014% in test [7]; 0.048% in test [8]. Besides, the percent of input phage in [9] worked out at 0.13%; in test [10], 0.316%; in test [11] it was 0.264%; in test [12] it was 0.227%; in test [13], 0.163%; in [21], 0.026%. The percent of input phage in [22] came to 0.211%; in [14], 0.18%; in test [15], 0.46%; in [25], 1.67%; in [26] it was 0.304%; in test [27] it was 0.162%. Further, the percent of input phage in test [28] was found to be 0.313%. Also, the binding relative to M13MP18 in [23] amounted to 14000 fold; with trypsin [24], 2 fold. In addition, the eluted phage, percent of input is 4.1% in [23] and 0.001% with trypsin [24]. Moreover, the total percentage of input phage recovered in test [16] came out at 0.57%; in [17] it was 1.8%. In test [29], the enrichment over BPTI-III MK phage in the pH 4.0 fraction was found to be 984 fold.

In the case of “BPTI(K15V,R17L)-III MA phage (designed binder)”, the percent of input phage in test [2] was determined as 0.068%; in test [3] it was 0.515%; in test [4], 0.241%; in [5], 0.138%; in [6], 0.081%; in [21] it was 0.106%. Further, in [22], the percent of input phage worked out at 0.355%. Also, the total percentage of input phage recovered in test [16] turned out to be 1.73%.

For “BPTI-III MK phage (from UniProt P00974 36-93)”, the binding relative to M13MP18 with trypsin [24] was 2000 fold. This substance also showed an eluted phage, percent of input with trypsin [24] of 1%. Also, the percent residual titer came to 40% in [30], 40% in test [31] and 30% in test [32]. Further, the results for the percent of total phage recovered in elution buffer in test [33], in test [34] and in test [35] were 5%, 20% and 50%, respectively.

With “BPTI-III MK phage (from UniProt P00974 36-93) (other; other documents disagree on this pair)”, the percent of input phage came to 0.001% in test [3], 0.002% in test [6] and 0.005% in test [18]. The total pfu in fraction in test [3] was determined as 30000 pfu; in test [6], 50000 pfu. In test [16], this substance registered a total percentage of input phage recovered of 0.008%. The percent of total phage recovered in elution buffer in test [36] was less than 1%.
